Experimental data as given in ChEMBL document CHEMBL2385050 (J Med Chem, 2013).

By UniProt entry, the sequences of proteins in these tests, tags left out. Where a name states a change or a piece, a line headed by the entry shows the natural chain unless it says otherwise.
UniProt P11511: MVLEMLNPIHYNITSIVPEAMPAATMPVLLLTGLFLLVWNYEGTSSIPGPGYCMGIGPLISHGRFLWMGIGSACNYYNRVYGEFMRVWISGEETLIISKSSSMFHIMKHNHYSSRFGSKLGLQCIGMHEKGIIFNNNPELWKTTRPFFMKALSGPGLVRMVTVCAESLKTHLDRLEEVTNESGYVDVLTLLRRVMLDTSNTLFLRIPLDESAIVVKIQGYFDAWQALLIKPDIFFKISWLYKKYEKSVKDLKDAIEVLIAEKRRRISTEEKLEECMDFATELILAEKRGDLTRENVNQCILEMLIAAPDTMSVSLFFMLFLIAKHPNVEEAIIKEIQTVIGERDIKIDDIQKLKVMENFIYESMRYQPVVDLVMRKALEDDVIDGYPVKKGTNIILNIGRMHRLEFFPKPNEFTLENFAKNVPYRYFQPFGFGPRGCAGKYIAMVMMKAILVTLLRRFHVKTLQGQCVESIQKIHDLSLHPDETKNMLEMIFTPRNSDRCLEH

Key:
[1] = molecular target: T1, Aromatase (Homo sapiens, UniProt P11511); experiment: Inhibition of human recombinant microsomal aromatase-mediated 7-methoxy-4-trifluoromethylcoumarin conversion to 7-hydroxytrifluoromethylcoumarin preincubated for 10 mins measured after 30 mins by fluorescence assay
Outline: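 Recombinant human CYP19 with MFC substrate in 0.1 M potassium phosphate pH 7.4; samples in methanol or methanol/dichloromethane, prewarmed 10 min at 37 °C with NADPH-generating cofactor mix (NADP+, MgCl2, glucose-6-phosphate, G6PDH), then 30 min reaction, stopped with 0.1 M Tris base in acetonitrile. HFC fluorescence read at ex/em 409/530 nm against standard curve; IC50 from one-site competition fit versus vehicle control.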

[2] = molecular target: T1, Aromatase; experiment: Inhibition of human recombinant microsomal aromatase using 7-methoxy-4-trifluoromethylcoumarin as substrate by Lineweaver-Burk plot analysis
Outline: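 CYP19 MFC-to-HFC fluorometric assay run at several substrate concentrations. Inhibition data shown as Lineweaver–Burk plots to define mechanism. Ki derived by nonlinear least-squares regression.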

[3] = molecular target: T1, Aromatase; experiment: Inhibition of human recombinant placental aromatase
Outline: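 Recombinant human aromatase (CYP19) in microsomal incubations with fluorogenic substrate MFC, read as conversion to HFC. Compounds in methanol or methanol/dichloromethane, prewarmed 10 min at 37 °C with NADPH-regenerating mix, then enzyme/substrate in 0.1 M potassium phosphate pH 7.4 added. Incubation 30 min, stopped with Tris base in acetonitrile, fluorescence at 409/530 nm. Activity given as % of vehicle control.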

IC50 [1] [nM] | Ki [2] [nM] | IC50 [3] [nM] | SMILES
1030 | 442 | – | CC/C(=C(\c1ccc(O)cc1)c1ccc(OCCN)cc1)c1ccccc1
76.8 | 48 | 90 | CC/C(=C(/c1ccc(O)cc1)c1ccc(OCCN)cc1)c1ccccc1
102 | 77 | 90 | CCC(=C(c1ccc(O)cc1)c1ccc(OCCN)cc1)c1ccccc1
